Assay results reported in patent EP4563146A1 (IRBM S.P.A., priority 2023, dated 2025).
Like-named read-outs stand apart in the source and are kept apart here.

Target: DEN2V NS2B-G4SG4-NS3 serine protease (Dengue virus type 2, UniProt Q91H74)
Assay: DEN2V protease inhibition assay
[1] = read-out: Dengue 2 - NS3 protease

## COC(=O)c1ccc(C[n+]2cc([N-]C(=O)Nc3cc(NC(=O)Cc4ccccc4)cc(C(F)(F)F)c3)on2)cc1 [Example 98, (3-(4-(Methoxycarbonyl)benzyl)-1,2,3-oxadiazol-3-ium-5-yl)((3-(2-phenyl-acetamido)-5-(trifluoromethyl)phenyl)carbamoyl)amide]
  IC50: < 100 nM

## O=C([N-]c1c[n+](Cc2ccccn2)no1)Nc1cc(NCCc2ccccc2)cc(C(F)(F)F)c1 [Example 53, ((3-(Phenethylamino)-5-(trifluoromethyl)-phenyl)carbamoyl)(3-(pyridin-2-ylmethyl)-1,2,3-oxadiazol-3-ium-5-yl)amide]
  IC50: 1000 to 20000 nM

## O=C(Cc1cccc2cn[nH]c12)Nc1cc(NC(=O)[N-]c2c[n+](Cc3ccccn3)no2)cc(C(F)(F)F)c1 [Example 126, ((3-(2-(1H-Indazol-7-yl)acetamido)-5-(trifluoromethyl)phenyl)carbamoyl)(3-(pyridin-2-ylmethyl)-1,2,3-oxadiazol-3-ium-5-yl)amide]
  IC50: 100 to 1000 nM

## COc1ccc(CC(=O)Nc2cc(NC(=O)[N-]c3c[n+](Cc4ccc(-c5cnc(OC)nc5C)cc4)no3)cc(C(F)(F)F)c2)cc1 [Example 16, (3-(4-(2-Methoxy-4-methylpyrimidin-5-yl)benzyl)-1,2,3-oxadiazol-3-ium-5-yl)((3-(2-(4-methoxyphenyl)acetamido)-5-(trifluoromethyl)phenyl)carbamoyl)amide]
  IC50: 100 to 1000 nM

## O=C(CC1CCC1)Nc1cc(NC(=O)[N-]c2c[n+](Cc3ccccn3)no2)cc(C(F)(F)F)c1 [Example 54]
[1]
  IC50: 100 to 1000 nM

## CN1CC(C(=O)Nc2cc(NC(=O)[N-]c3c[n+](Cc4ccccn4)no3)cc(C(F)(F)F)c2)C1 [Example 49]
[1]
  IC50: 1000 to 20000 nM

## O=C(Cc1ccccc1)Nc1cc(NC(=O)[N-]c2c[n+](Cc3cccc(CN4C(=O)c5ccccc5C4=O)c3)no2)cc(C(F)(F)F)c1 [Example 107, (3-(3-((1,3-Dioxoisoindolin-2-yl)methyl)benzyl)-1,2,3-oxadiazol-3-ium-5-yl)((3-(2-phenylacetamido)-5-(trifluoromethyl)phenyl)carbamoyl)amide]
  IC50: < 100 nM

## O=C([N-]c1c[n+](Cc2ccccn2)no1)Nc1cc(NC(=O)c2ccon2)cc(C(F)(F)F)c1 [Example 44]
[1]
  IC50: 1000 to 20000 nM

## O=C(Cc1cc(NC(=O)[N-]c2c[n+](Cc3ccccn3)no2)cc(C(F)(F)F)c1)NCc1ccccc1 [Example 90, ((3-(2-(Benzylamino)-2-oxoethyl)-5-(trifluoromethyl)phenyl)carbamoyl)(3-(pyridin-2-ylmethyl)-1,2,3-oxadiazol-3-ium-5-yl)amide]
  IC50: 100 to 1000 nM

## O=C([N-]c1c[n+](Cc2ccccn2)no1)Nc1cc(NC(=O)C2CC(F)(F)C23CCC3)cc(C(F)(F)F)c1 (stereo not shown) [Example 85]
[1]
  IC50: 100 to 1000 nM

## O=C([N-]c1c[n+](Cc2ccccn2)no1)Nc1cc(NC(=O)C2(Oc3ccc(Cl)cc3)COC2)cc(C(F)(F)F)c1 [Example 83]
[1]
  IC50: 100 to 1000 nM

## O=C([N-]c1c[n+](Cc2ccccn2)no1)Nc1cc(NC(=O)c2ccn3c2COCC3)cc(C(F)(F)F)c1 [Example 81, ((3-(3,4-Dihydro-1H-pyrrolo[2,1-c][1,4]oxazine-8-carboxamido)-5-(trifluoromethyl)-phenyl)carbamoyl)(3-(pyridin-2-ylmethyl)-1,2,3-oxadiazol-3-ium-5-yl)amide]
  IC50: 1000 to 20000 nM

## O=C([N-]c1c[n+](Cc2ccccn2)no1)Nc1cc(NC(=O)C2CCCC3(CCOC3)O2)cc(C(F)(F)F)c1 (stereo not shown) [Example 84]
[1]
  IC50: 1000 to 20000 nM

## O=C([N-]c1c[n+](Cc2ccccn2)no1)Nc1cc(NC(=O)[C@H]2C[C@](O)(c3ccccn3)C2)cc(C(F)(F)F)c1 [Example 69]
[1]
  IC50: 1000 to 20000 nM

## O=C(Cc1ccccc1)Nc1cc(NC(=O)[N-]c2c[n+](CC3CCCCN3CC(F)(F)F)no2)cc(C(F)(F)F)c1 (stereo not shown) [Example 142, ((3-(2-Phenylacetamido)-5-(trifluoromethyl)phenyl)carbamoyl)(3-((1-(2,2,2-trifluoroethyl)piperidin-2-yl)methyl)-1,2,3-oxadiazol-3-ium-5-yl)amide]
  IC50: 100 to 1000 nM

## N#Cc1ccc2nc(C(=O)Nc3cc(NC(=O)[N-]c4c[n+](Cc5ccccn5)no4)cc(C(F)(F)F)c3)cn2c1 [Example 37]
[1]
  IC50: 1000 to 20000 nM

## O=C(C#Cc1ccccc1)Nc1cc(NC(=O)[N-]c2c[n+](Cc3ccccn3)no2)cc(C(F)(F)F)c1 [Example 46]
[1]
  IC50: 100 to 1000 nM

## O=C([N-]c1c[n+](C[C@H]2CC[C@H](NC(=O)C(F)(F)F)CC2)no1)Nc1cc(N2CC[C@H](c3ccccc3)C2=O)cc(C(F)(F)F)c1 [Example 145, ((3-((R)-2-Oxo-3-phenylpyrrolidin-1-yl)-5-(trifluoromethyl)phenyl)carbamoyl)(3-(((1R,4R)-4-(2,2,2-trifluoroacetamido)cyclohexyl)methyl)-1,2,3-oxadiazol-3-ium-5-yl)amide]
  IC50: < 100 nM

## N[C@H]1CC[C@H](C[n+]2cc([N-]C(=O)Nc3cc(N4CCC(c5ccccc5)C4=O)cc(C(F)(F)F)c3)on2)CC1 (stereo partly drawn) [Example 132, (3-(((1R,4R)-4-Aminocyclohexyl)methyl)-1,2,3-oxadiazol-3-ium-5-yl)((3-(2-oxo-3-phenylpyrrolidin-1-yl)-5-(trifluoromethyl)-phenyl)carbamoyl)amide]
  IC50: < 100 nM

## Cc1cc(NC(=O)Cc2ccccc2)cc(NC(=O)[N-]c2c[n+](Cc3ccccn3)no2)c1 [Example 57, ((3-Methyl-5-(2-phenylacetamido)phenyl)carbamoyl)(3-(pyridin-2-ylmethyl)-1,2,3-oxadiazol-3-ium-5-yl)amide]
  IC50: 100 to 1000 nM

## COc1ncc(-c2ccc(C[n+]3cc([N-]C(=O)Nc4cc(NS(=O)(=O)CC5CCCCC5)cc(C(F)(F)F)c4)on3)cc2)c(C)n1 [Example 2, ((3-((Cyclohexylmethyl)sulfonamido)-5-(trifluoromethyl)phenyl)carbamoyl)(3-(4-(2-methoxy-4-methylpyrimidin-5-yl)benzyl)-1,2,3-oxadiazol-3-ium-5-yl)amide]
  IC50: 100 to 1000 nM

## CN1Cc2cc(C(=O)Nc3cc(NC(=O)[N-]c4c[n+](Cc5ccccn5)no4)cc(C(F)(F)F)c3)sc2C1 [Example 39]
[1]
  IC50: 1000 to 20000 nM

## O=C([N-]c1c[n+](Cc2ccccn2)no1)Nc1cc(NC(=O)C2CCCc3cn[nH]c32)cc(C(F)(F)F)c1 (stereo not shown) [Example 38, (3-(Pyridin-2-ylmethyl)-1,2,3-oxadiazol-3-ium-5-yl)((3-(4,5,6,7-tetrahydro-1H-indazole-7-carboxamido)-5-(trifluoromethyl)phenyl)carbamoyl)amide]
  IC50: 100 to 1000 nM

## COc1ncc(-c2ccc(C[n+]3cc([N-]C(=O)Nc4cc(NC(=O)Cc5ccccc5Cl)cc(C(F)(F)F)c4)on3)cc2)c(C)n1 [Example 21, ((3-(2-(2-Chlorophenyl)acetamido)-5-(trifluoromethyl)phenyl)carbamoyl)(3-(4-(2-methoxy-4-methylpyrimidin-5-yl)benzyl)-1,2,3-oxadiazol-3-ium-5-yl)amide]
  IC50: < 100 nM

## O=C([N-]c1c[n+](Cc2ccccn2)no1)Nc1cc(NC(=O)C2CN(C3CC3)C2)cc(C(F)(F)F)c1 [Example 77]
[1]
  IC50: 1000 to 20000 nM

## O=C([N-]c1c[n+](Cc2ccccn2)no1)Nc1cc(NC(=O)C2Cc3ccccc32)cc(C(F)(F)F)c1 (stereo not shown) [Example 47]
[1]
  IC50: 100 to 1000 nM

## O=C([N-]c1c[n+](Cc2ccccn2)no1)Nc1cc(NC(=O)c2cnn(Cc3ccccc3)c2)cc(C(F)(F)F)c1 [Example 35]
[1]
  IC50: 1000 to 20000 nM

## O=C([N-]c1c[n+](Cc2ccccn2)no1)Nc1cc(NC(=O)c2cncn2C2CC2)cc(C(F)(F)F)c1 [Example 75]
[1]
  IC50: 1000 to 20000 nM
